Data reported in ChEMBL document CHEMBL1153704, “Imidazo[1,2-a]pyrazine diaryl ureas: inhibitors of the receptor tyrosine kinase EphB4” (Bioorg Med Chem Lett, 2009).

Chains of the proteins cited; added tags and fusions are not shown. Lines headed by an entry give the natural chain unless they say otherwise; changes in a name come on top.
UniProt P22455, whole entry: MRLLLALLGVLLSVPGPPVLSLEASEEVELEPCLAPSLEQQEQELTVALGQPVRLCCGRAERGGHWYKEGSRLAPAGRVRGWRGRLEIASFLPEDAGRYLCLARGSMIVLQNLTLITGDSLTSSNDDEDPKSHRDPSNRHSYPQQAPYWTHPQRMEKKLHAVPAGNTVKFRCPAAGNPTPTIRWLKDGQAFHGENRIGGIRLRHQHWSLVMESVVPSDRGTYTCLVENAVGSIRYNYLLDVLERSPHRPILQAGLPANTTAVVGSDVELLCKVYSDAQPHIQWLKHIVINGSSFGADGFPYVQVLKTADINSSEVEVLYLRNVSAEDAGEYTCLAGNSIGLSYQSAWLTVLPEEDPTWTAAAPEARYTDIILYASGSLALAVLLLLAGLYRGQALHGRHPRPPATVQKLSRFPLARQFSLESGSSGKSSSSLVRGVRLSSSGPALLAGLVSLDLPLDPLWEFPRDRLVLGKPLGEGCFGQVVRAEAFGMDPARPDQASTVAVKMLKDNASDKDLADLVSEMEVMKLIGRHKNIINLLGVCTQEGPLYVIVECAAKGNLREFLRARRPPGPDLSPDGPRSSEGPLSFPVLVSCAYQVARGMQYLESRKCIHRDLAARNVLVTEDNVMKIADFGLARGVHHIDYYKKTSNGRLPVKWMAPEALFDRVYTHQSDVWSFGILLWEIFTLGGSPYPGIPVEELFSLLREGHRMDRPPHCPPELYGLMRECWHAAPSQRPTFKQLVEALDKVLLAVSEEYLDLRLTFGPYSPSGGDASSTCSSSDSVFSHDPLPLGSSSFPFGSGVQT
UniProt P31749: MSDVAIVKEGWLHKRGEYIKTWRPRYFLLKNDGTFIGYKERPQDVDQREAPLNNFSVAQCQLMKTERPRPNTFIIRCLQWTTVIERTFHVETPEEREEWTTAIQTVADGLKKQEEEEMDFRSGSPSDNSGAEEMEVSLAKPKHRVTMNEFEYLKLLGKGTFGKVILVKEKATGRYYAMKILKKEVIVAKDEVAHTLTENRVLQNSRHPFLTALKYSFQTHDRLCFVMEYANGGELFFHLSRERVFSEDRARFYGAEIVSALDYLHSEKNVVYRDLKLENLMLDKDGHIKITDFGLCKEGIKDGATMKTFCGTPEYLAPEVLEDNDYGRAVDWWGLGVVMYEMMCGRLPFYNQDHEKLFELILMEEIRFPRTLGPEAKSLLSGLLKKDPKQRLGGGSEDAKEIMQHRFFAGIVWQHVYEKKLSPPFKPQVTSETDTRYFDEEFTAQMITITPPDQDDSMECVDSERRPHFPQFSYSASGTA
UniProt Q04759: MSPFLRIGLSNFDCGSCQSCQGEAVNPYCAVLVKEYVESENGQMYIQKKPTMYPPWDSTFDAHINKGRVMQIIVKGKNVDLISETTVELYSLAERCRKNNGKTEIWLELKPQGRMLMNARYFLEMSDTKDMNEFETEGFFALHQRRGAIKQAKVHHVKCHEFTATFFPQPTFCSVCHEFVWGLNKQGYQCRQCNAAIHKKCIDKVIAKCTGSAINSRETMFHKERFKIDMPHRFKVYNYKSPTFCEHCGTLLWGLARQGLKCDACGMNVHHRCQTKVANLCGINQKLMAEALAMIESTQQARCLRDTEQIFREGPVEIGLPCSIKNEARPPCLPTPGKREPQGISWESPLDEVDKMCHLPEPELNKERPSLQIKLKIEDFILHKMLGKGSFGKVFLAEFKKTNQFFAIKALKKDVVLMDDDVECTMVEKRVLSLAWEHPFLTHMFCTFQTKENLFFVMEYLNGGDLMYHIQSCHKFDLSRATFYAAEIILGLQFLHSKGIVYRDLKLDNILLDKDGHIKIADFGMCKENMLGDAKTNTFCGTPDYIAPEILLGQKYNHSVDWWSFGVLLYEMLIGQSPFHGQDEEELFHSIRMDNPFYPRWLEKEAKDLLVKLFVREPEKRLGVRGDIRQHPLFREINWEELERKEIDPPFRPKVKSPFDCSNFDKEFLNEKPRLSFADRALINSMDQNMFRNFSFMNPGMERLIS

Key:
[1] = target: Fibroblast growth factor receptor 4 (Homo sapiens, UniProt P22455); experiment: Inhibition of FGFR4 after 1 hr
[2] = target: RAC-alpha serine/threonine-protein kinase (Homo sapiens, UniProt P31749); experiment: Inhibition of Akt after 1 hr
[3] = target: Protein kinase C theta type (Homo sapiens, UniProt Q04759); experiment: Inhibition of PKCtheta after 1 hr

Measured: IC50

O=C(Nc1cccc(-c2cn3ccnc3c(NCc3ccncc3)n2)c1)Nc1cccc(C(F)(F)F)c1
50 µM: all assays above
